Key:
[1] = tested on: TNFα release from LPS activated THP-1 cells or PBMC's; experiment: p38 Functional Assay (TNFα release after LPS); settings: read-out: EC50 (inhibition of TNFα release), 1 h pre-treatment, 0.3% DMSO
Experimental: Inhibition of cellular p38 depresses the release of TNFα, a functional response which is quantified by measurement of the amount of TNFα in the supernatants of LPS activated THP-1 cells (an immortalised monocytic cell line) or peripheral blood mononuclear cells (PBMC's) isolated from freshly drawn human blood.
Cells seeded in 96 well plates are pre-treated by the addition of p38 inhibitors for 1 h followed by addition of lipopolysaccharide (LPS) to activate cytokine production and release. The amount of TNFα released into the cell supernatants is quantified using an R&D Systems enzyme linked immunosorbant assay (ELISA) kit (product DY210) following the manufacturers instructions.
Compounds are diluted in DMSO prior to addition, the final DMSO concentration in the assay being 0.3%. The EC50 is defined as the concentration at which a given compound achieves 50% inhibition of the control.

Amino acid sequences for entries named in this document (tags omitted).
UniProt Q16539, whole entry: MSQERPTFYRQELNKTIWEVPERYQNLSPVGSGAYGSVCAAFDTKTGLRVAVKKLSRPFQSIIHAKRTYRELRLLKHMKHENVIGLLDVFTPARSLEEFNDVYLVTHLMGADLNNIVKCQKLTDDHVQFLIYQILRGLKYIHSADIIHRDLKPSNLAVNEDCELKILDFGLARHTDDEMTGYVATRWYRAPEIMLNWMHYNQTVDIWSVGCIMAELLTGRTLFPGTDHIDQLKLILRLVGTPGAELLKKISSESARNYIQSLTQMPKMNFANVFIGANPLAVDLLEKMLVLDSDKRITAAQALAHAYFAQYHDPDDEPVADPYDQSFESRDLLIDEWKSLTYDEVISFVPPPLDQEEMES

[2] = molecular target: p38α (Homo sapiens, UniProt Q16539); experiment: p38 Kinase Assay (ATF-2 phosphorylation ELISA); settings: read-out: p38α inhibition (IC50 values); 2 h pre-incubation, ATP 250 μM, 1% DMSO
Experimental: Human recombinant p38 enzyme expressed in E. coli and activated by incubation with MKK6 enzyme (Calbiochem #559324) is used as source of enzyme activity.
The assay is carried in high binding, clear, flat bottom 96 well assay plates which have been coated with recombinant ATF-2 (Biosource #PHF0043). Test compounds are incubated with p38 kinase for 2 h prior to initiating the kinase assay by the addition of ATP to obtain an assay concentration of 250 μM. Phosphorylation of ATF-2 is detected and quantified using an ELISA. This consists of sequential incubation in the presence of anti-phospho-ATF2, biotinylated anti-IgG and streptavidin-HRP. Incubation with an HRP chromogenic substrate (TMB) results in absorbance that is proportional to the amount of phosphorylated substrate produced. Absorbance is detected using a multiwell plate reader.
Compounds are diluted in DMSO prior to addition to assay buffer, the final DMSO concentration in the assay being 1%.
The IC50 is defined as the concentration at which a given compound achieves 50% inhibition of control.

| IC50 [2] | Compound | EC50 [1] |
| --- | --- | --- |
| 100 to 500 nM | O=C(Cc1ccc(Sc2ccc3nnc(-c4cccc(OCCN5CCOCC5)c4)n3c2)cc1)Nc1cc(F)cc(N2CCOCC2)c1 | 100 to 500 nM |
| < 10 nM | Cc1ccc(-n2nc(C(C)(C)C)cc2NC(=O)Cc2ccc(Sc3ccc4nnc(-c5c(Cl)cccc5Cl)n4c3)cc2)cc1 | < 10 nM |
| 10 to 100 nM | CC(C)c1nnc2ccc(Sc3ccc(CC(=O)Nc4cc(C(C)(C)C)nn4-c4cccc(CN5CCOCC5)c4)cc3)cn12 | 500 to 7000 nM |
| < 10 nM | Cc1ccc(-n2nc(C(C)(C)C)cc2NC(=O)Cc2ccc(Sc3ccc4nnc(-c5cccc(OCCN6CCOCC6)c5)n4c3)cc2)cc1 | 10 to 100 nM |

From patent publication US8557797B2, “Triazolopyridine derivatives and their therapeutic use” (Chiesi Farmaceutici S.p.A., priority 2009, dated 2013)
